Broadly, the inhibition is the drop in the measured response relative to a control, in per cent.

The values that follow come from PubChem BioAssay AID869 (SRMLSC, 2007).

The entries are a selection whose mix differs from that of the whole data set. Active and inactive are the calls of the source.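 Rule for the calls: active = inhibition over a set limit, the all-compound mean plus 3 SD, in both replicate runs; inconclusive = over that limit in just one replicate run; inactive = at or under that limit in both runs.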

This experiment in a line: inhibitors of the yeast RAM network, pilot screen, dse1pr::URA3 reporter, 5-FOA selection (AID 869).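 Note: 0% = DMSO wells with no growth and 100% = 10 µM 1-NA-PP1 with full growth; RAM network block rescues cells from 5-FOA so hits raise OD615 growth.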 The note with it: S. cerevisiae dse1pr::URA3 5-FOA growth, OD615, 2 d; at 10 µM; hits give high values; strain carries analog-sensitive mutant Cbk1 kinase.
In the case of `Fc1ccccc1NC1CCN(Cc2ccccc2)CC1`, the inhibition was inactive: 1.87%.
